Our source for the IC50 values is patent EP2487171A1, “Dihydrobenzopyran, thiochroman, tetrahydroquinoleine and tetrahydronaphthalene derivatives and their use in anti-cancer therapy” (Université de Liège, priority 2011, dated 2012).

This assay deals with three Human Glioma Cell Lines. The assay can be described thus: MTT colorimetric assay, mean over the three glioma cell lines. The class given is cell-based. The following applies: mean of U373, T98G and Hs683, 72 hours (Table 1), read-out: IC50 (µM) In Vitro Growth Inhibitory Concentrations (MTT Colorimetric Assay) Mean ± SEM. As for the experimental part: Table 2: Bioselectivity determined by dividing the IC50 obtained with glioma cell lines by the IC50 obtained with normal astrocytes. Bioselectivity was determined only for those compounds whose mean + SEM values on the three human glioma cell lines were ≤ 20 µM.

For `CC(C)(C)OC(=O)Nc1ccc2c(c1)C(NC(=O)Nc1ccccc1Cl)CCO2` (racemic) [Example 1, R/S-N-2-chlorophenyl-N'-(6-tert-butoxycarbonylamino-3,4-dihydro-2H-1-benzopyran-4-yl)urea], the IC50 is 24 ± 1 µM.

For the compound `CC(C)(C)OC(=O)Nc1ccc2c(c1)C(NC(=O)Nc1cccc(Cl)c1)CCO2` (racemic) [Example 2, R/S-N-3-chlorophenyl-N'-(6-tert-butoxycarbonylamino-3,4-dihydro-2H-1-benzopyran-4-yl)urea], the IC50 stood at 25 ± 3 µM.

For `CC(C)(C)OC(=O)Nc1ccc2c(c1)C(NC(=O)Nc1ccc(Cl)cc1)CCO2` (racemic) [Example 3, R/S-N-4-chlorophenyl-N'-(6-tert-butoxycarbonylamino-3,4-dihydro-2H-1-benzopyran-4-yl)urea], the IC50 is above 70 µM.

Take `CC(C)(C)OC(=O)Nc1ccc2c(c1)C(NC(=O)Nc1ccccc1C#N)CCO2` (racemic) [Example 4, R/S-N-2-cyanophenyl-N'-(6-tert-butoxycarbonylamino-3,4-dihydro-2H-1-benzopyran-4-yl)urea]: the IC50 amounted to 54 ± 6 µM.

As for `CC(C)(C)OC(=O)Nc1ccc2c(c1)C(NC(=O)Nc1cccc(C#N)c1)CCO2` (racemic) [Example 5, R/S-N-3-cyanophenyl-N'-(6-tert-butoxycarbonylamino-3,4-dihydro-2H-1-benzopyran-4-yl)urea], the IC50 is 31 ± 4 µM.

Consider `CC(C)(C)OC(=O)Nc1ccc2c(c1)C(NC(=O)Nc1ccc(C#N)cc1)CCO2` (racemic) [Example 6, R/S-N-4-cyanophenyl-N'-(6-tert-butoxycarbonylamino-3,4-dihydro-2H-1-benzopyran-4-yl)urea], for which the IC50 was 41 ± 2 µM.

Regarding `CC(C)(C)OC(=O)Nc1ccc2c(c1)C(NC(=O)Nc1cccc(C#N)c1)CC(C)(C)O2` (racemic) [Example 14, R/S-N-3-cyanophenyl-N'-(6-tert-butoxycarbonylamino-3,4-dihydro-2,2-dimethyl-2H-1-benzopyran-4-yl)urea], the IC50 is 2 ± 1 µM.

For `CC(C)(C)OC(=O)Nc1ccc2c(c1)C(NC(=O)Nc1ccc(C#N)cc1)CC(C)(C)O2` (racemic) [Example 15, R/S-N-4-cyanophenyl-N'-(6-tert-butoxycarbonylamino-3,4-dihydro-2,2-dimethyl-2H-1-benzopyran-4-yl)urea], the IC50 was determined as 18 ± 5 µM.

As to `CC(C)(C)OC(=O)Nc1ccc2c(c1)C(NC(=O)Nc1cccc(Cl)c1)CC(C)(C)O2` (racemic) [Example 16, R/S-N-3-chlorophenyl-N'-(6-tert-butoxycarbonylamino-3,4-dihydro-2,2-dimethyl-2H-1-benzopyran-4-yl)urea], the IC50 worked out at 17 ± 3 µM.

With `CC(C)(C)OC(=O)Nc1ccc2c(c1)C(NC(=O)Nc1ccc(Cl)cc1)CC(C)(C)O2` (racemic) [Example 17, R/S-N-4-chlorophenyl-N'-(6-tert-butoxycarbonylamino-3,4-dihydro-2,2-dimethyl-2H-1-benzopyran-4-yl)urea], the IC50 is 25 ± 1 µM.

In the case of `CC(C)(C)OC(=O)Nc1ccc2c(c1)C(NC(=O)Nc1ccc(F)cc1)CC(C)(C)O2` (racemic) [Example 18, R/S-N-4-fluorophenyl-N'-(6-tert-butoxycarbonylamino-3,4-dihydro-2,2-dimethyl-2H-1-benzopyran-4-yl)urea], the IC50 was determined as 33 ± 1 µM.

Take `CC(C)(C)OC(=O)Nc1ccc2c(c1)C(NC(=O)Nc1cccc(F)c1)CC(C)(C)O2` (racemic) [Example 19, R/S-N-3-fluorophenyl-N'-(6-tert-butoxycarbonylamino-3,4-dihydro-2,2-dimethyl-2H-1-benzopyran-4-yl)urea]: the IC50 amounted to 22 ± 2 µM.

Turning to `CC(C)(C)OC(=O)Nc1ccc2c(c1)C(NC(=O)Nc1cccc(Br)c1)CC(C)(C)O2` (racemic) [Example 20, R/S-N-3-bromophenyl-N'-(6-tert-butoxycarbonylamino-3,4-dihydro-2,2-dimethyl-2H-1-benzopyran-4-yl)urea], the IC50 was determined as 22 ± 2 µM.

On to `CC(C)(C)OC(=O)Nc1ccc2c(c1)C(NC(=O)Nc1cc(F)cc(F)c1)CC(C)(C)O2` (racemic) [Example 21, R/S-N-3,5-difluorophenyl-N'-(6-tert-butoxycarbonylamino-3,4-dihydro-2,2-dimethyl-2H-1-benzopyran-4-yl)urea], for which the IC50 is 9 ± 3 µM.

With `CC(C)(C)OC(=O)Nc1ccc2c(c1)C(NC(=O)Nc1ccc([N+](=O)[O-])cc1)CC(C)(C)O2` (racemic) [Example 22, R/S-N-4-nitrophenyl-N'-(6-tert-butoxycarbonylamino-3,4-dihydro-2,2-dimethyl-2H-1-benzopyran-4-yl)urea], the IC50 worked out at 23 ± 2 µM.

For the compound `CC(C)(C)OC(=O)Nc1ccc2c(c1)C(NC(=O)Nc1cccc([N+](=O)[O-])c1)CC(C)(C)O2` (racemic) [Example 23, R/S-N-3-nitrophenyl-N'-(6-tert-butoxycarbonylamino-3,4-dihydro-2,2-dimethyl-2H-1-benzopyran-4-yl)urea], the IC50 was 8 ± 4 µM.

With `CC(C)(C)OC(=O)Nc1ccc2c(c1)C(NC(=O)Nc1ccc(C(F)(F)F)cc1)CC(C)(C)O2` (racemic) [Example 24, R/S-N-4-trifluoromethylphenyl-N'-(6-tert-butoxycarbonylamino-3,4-dihydro-2,2-dimethyl-2H-1-benzopyran-4-yl)urea], the IC50 was determined as 12 ± 1 µM.

Take `CC(C)(C)OC(=O)Nc1ccc2c(c1)C(NC(=O)Nc1cccc(C(F)(F)F)c1)CC(C)(C)O2` (racemic) [Example 25, R/S-N-3-trifluoromethylphenyl-N'-(6-tert-butoxycarbonylamino-3,4-dihydro-2,2-dimethyl-2H-1-benzopyran-4-yl)urea]: the IC50 was 13 ± 4 µM.

Consider `CC(C)(C)OC(=O)Nc1ccc2c(c1)C(NC(=O)Nc1cc(Cl)cc(Cl)c1)CC(C)(C)O2` (racemic) [Example 26, R/S-N-3,5-dichlorophenyl-N'-(6-tert-butoxycarbonylamino-3,4-dihydro-2,2-dimethyl-2H-1-benzopyran-4-yl)urea], for which the IC50 came to 9 ± 2 µM.

Take `CC(C)(C)OC(=O)Nc1ccc2c(c1)C(NC(=O)Nc1ccccc1[N+](=O)[O-])CC(C)(C)O2` (racemic) [Example 27, R/S-N-2-nitrophenyl-N'-(6-tert-butoxycarbonylamino-3,4-dihydro-2,2-dimethyl-2H-1-benzopyran-4-yl)urea]: the IC50 came to 16 ± 3 µM.

As for `CC(C)(C)OC(=O)Nc1ccc2c(c1)C(NC(=O)Nc1cc(C(F)(F)F)cc(C(F)(F)F)c1)CC(C)(C)O2` (racemic) [Example 29, R/S-N-3,5-di(trifluoromethyl)phenyl-N'-(6-tert-butoxycarbonylamino-3,4-dihydro-2,2-dimethyl-2H-1-benzopyran-4-yl)urea], the IC50 is 4 ± 1 µM.

Take `CC(C)(C)OC(=O)Nc1ccc2c(c1)C(NC(=O)Nc1ccc(C(F)(F)F)cc1Cl)CC(C)(C)O2` (racemic) [Example 30, R/S-N-2-chloro-4-trifluoromethylphenyl-N'-(6-tert-butoxycarbonylamino-3,4-dihydro-2,2-dimethyl-2H-1-benzopyran-4-yl)urea]: the IC50 was found to be 28 ± 3 µM.

With `CC(C)(C)OC(=O)Nc1ccc2c(c1)C(NC(=O)Nc1cc(C(F)(F)F)ccc1Cl)CC(C)(C)O2` (racemic) [Example 31, R/S-N-2-chloro-5-trifluoromethylphenyl-N'-(6-tert-butoxycarbonylamino-3,4-dihydro-2,2-dimethyl-2H-1-benzopyran-4-yl)urea], the IC50 worked out at 22 ± 8 µM.

With `CC(C)(C)OC(=O)Nc1ccc2c(c1)C(NC(=O)Nc1c(Cl)cccc1C(F)(F)F)CC(C)(C)O2` (racemic) [Example 32, R/S-N-2-chloro-6-trifluoromethylphenyl-N'-(6-tert-butoxycarbonylamino-3,4-dihydro-2,2-dimethyl-2H-1-benzopyran-4-yl)urea], the IC50 was 62 ± 2 µM.

On to `CC(C)(C)OC(=O)Nc1ccc2c(c1)C(NC(=O)Nc1ccc(Cl)c(C(F)(F)F)c1)CC(C)(C)O2` (racemic) [Example 33, R/S-N-4-chloro-3-trifluoromethylphenyl-N'-(6-tert-butoxycarbonylamino-3,4-dihydro-2,2-dimethyl-2H-1-benzopyran-4-yl)urea], for which the IC50 came out at 22 ± 1 µM.

Take `CC(C)(C)OC(=O)Nc1ccc2c(c1)C(NC(=O)Nc1ccc(Br)cc1)CC(C)(C)O2` (racemic) [Example 34, R/S-N-4-bromophenyl-N'-(6-tert-butoxycarbonylamino-3,4-dihydro-2,2-dimethyl-2H-1-benzopyran-4-yl)urea]: the IC50 was determined as 21 ± 1 µM.

Take `CC(C)(C)OC(=O)Nc1ccc2c(c1)C(NC(=O)Nc1ccccc1Cl)CC(C)(C)O2` (racemic) [Example 35, R/S-N-2-chlorophenyl-N'-(6-tert-butoxycarbonylamino-3,4-dihydro-2,2-dimethyl-2H-1-benzopyran-4-yl)urea]: the IC50 came out at 64 ± 19 µM.

For the compound `CC(C)(C)OC(=O)Nc1ccc2c(c1)C(NC(=O)Nc1ccccc1C#N)CC(C)(C)O2` (racemic) [Example 36, R/S-N-2-cyanophenyl-N'-(6-tert-butoxycarbonylamino-3,4-dihydro-2,2-dimethyl-2H-1-benzopyran-4-yl)urea], the IC50 was determined as 55 ± 6 µM.

On to `CC(C)(C)OC(=O)Nc1ccc2c(c1)C(NC(=O)Nc1ccc(Cl)cc1C(F)(F)F)CC(C)(C)O2` (racemic) [Example 37, R/S-N-4-chloro-2-trifluoromethylphenyl-N'-(6-tert-butoxycarbonylamino-3,4-dihydro-2,2-dimethyl-2H-1-benzopyran-4-yl)urea], for which the IC50 stood at 34 ± 2 µM.
